# Reference: ChEMBL document CHEMBL2384918, “Identification of Selective Nanomolar Inhibitors of the Human Neuraminidase, NEU4” (ACS Med Chem Lett, 2013)
# Target: T1, Sialidase-3 (Homo sapiens, UniProt Q9UQ49)
# T1 sequence (Q9UQ49 whole entry): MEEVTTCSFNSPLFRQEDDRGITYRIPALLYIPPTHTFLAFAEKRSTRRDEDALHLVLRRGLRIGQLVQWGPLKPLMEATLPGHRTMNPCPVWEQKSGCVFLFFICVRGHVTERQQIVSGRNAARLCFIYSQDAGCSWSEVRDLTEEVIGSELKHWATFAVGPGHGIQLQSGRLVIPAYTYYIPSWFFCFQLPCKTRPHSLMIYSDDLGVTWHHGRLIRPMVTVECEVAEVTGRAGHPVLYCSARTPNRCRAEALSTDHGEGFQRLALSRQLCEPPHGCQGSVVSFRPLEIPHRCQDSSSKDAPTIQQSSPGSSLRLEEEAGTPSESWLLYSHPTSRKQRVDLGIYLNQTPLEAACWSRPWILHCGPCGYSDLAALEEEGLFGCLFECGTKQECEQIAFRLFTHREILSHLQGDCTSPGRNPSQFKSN
# Test: Inhibition of human NEU3 using 4-MU-NANA as substrate preincubated for 15 mins before substrate addition measured after 30 mins by fluorescence plate reader analysis
structure (smiles),measurement,value
CC(=O)N[C@H]1[C@H]([C@H](O)[C@H](O)Cn2cc(C(C)(C)O)nn2)OC(C(=O)O)=C[C@@H]1O,IC50,180 µM
